# Measurements: patent publication US20130136736A1 (Ablynx, published 2013)
# Changes are numbered by the printed parent chain.
# B1: 12A5H1 (VHH)
# VHH: EVQLVESGGGLVQPGGSLRLSCAASGRIFSIGAMGMYRQAPGKGRELVATITSGGSTNYADPVKGRFTISRDGPKNTVYLQMNSLRAEDTAVYYCYANLKQGSYGYRFNDYWGQGTQVTVSS
# notes: Humanised 12A5, monovalent; TALON-purified, so His-tagged
# B2: 12A5H2 (VHH)
# VHH: B1 VHH with P74A
# notes: as for B1
# B3: 12A2 (VHH)
# VHH: QVKLEESGGGLVQAGGALRLSCAASGRTFSYNPMGWFRQAPGKERDLVAAISRTGGSTYYPDSVEGRFTISRDNAKRMVYLQMNNLKPEDTAVYYCAAAGVRAEDGRVRTLPSEYTFWGQGTQVTVSS
# notes: 12B6 homologue, monovalent Nanobody
# B4: 12B6 (VHH)
# VHH: B3 VHH with K3Q, E5V, L47V, P61A, D62R, N85A, T116N
# notes: Monovalent llama Nanobody; TALON-purified and detected with anti-myc, so tagged (myc/His)
# B5: 12A2H3 (VHH)
# VHH: EVQLVESGGGLVQPGGSLRLSCAASGRTFSYNPMGWFRQAPGKGRELVAAISRTGGSTYYPDSVEGRFTISRDNAKNMVYLQMNSLRAEDTAVYYCAAAGVRAEDGRVRTLPSEYTFWGQGTQVTVSS
# notes: Humanised 12A2, monovalent
# B6: 12A2H11 (VHH)
# VHH: B5 VHH with R27F, N77R
# notes: Humanised 12A2, monovalent
# B7: 12A2H13 (VHH)
# VHH: B5 VHH with R27F, M78S, Q123L
# notes: Humanised 12A2, monovalent
# B8: 12B6H1 (VHH)
# VHH: B5 VHH with E46D, L47V, P61A, D62R, N77R, T116N
# notes: Humanised 12B6, monovalent
# B9: 12B6H2 (VHH)
# VHH: B5 VHH with L47V, P61A, D62R, N77R, T116N
# notes: Humanised 12B6, monovalent
# B10: 12B6H3 (VHH)
# VHH: B5 VHH with E46D, L47V, P61A, D62R, T116N
# notes: Humanised 12B6, monovalent
# B11: 12B6H4 (VHH)
# VHH: B5 VHH with E46D, L47V, P61A, D62R, N77R, M78S, T116N
# notes: Humanised 12B6, monovalent
# Target: T1, human von Willebrand Factor (vWF) (human, UniProt P04275 764-2813)
# T1 construct: Multimeric plasma protein; The species of the vWF on the BIACORE chip and ELISA plates is not restated there; also called vWF (Red Cross); human vWF
# Assay: SPR (BIACORE) on vWF
row,Kd [nM],Binder
1,1.8,B1
2,12.8,B2

# Target: T1, human von Willebrand Factor (vWF)
# Assay: SPR (BIACORE) on immobilised vWF, range of nanobody concentrations; KD via steady state affinity
row,Kd [nM],Binder
1,4.4,B3
2,4.5,B4

# Target: T1, human von Willebrand Factor (vWF)
# Assay: SPR (BIACORE) on vWF
# Remark: another data set of the same source
row,Kd [nM],Binder
1,3.1,B3
2,14.6,B5
3,10.6,B6
4,38.8,B7

# Target: T1, human von Willebrand Factor (vWF)
# Assay: SPR (BIACORE) on vWF
# Remark: another data set of the same source
row,Kd [nM],Binder
1,4.4,B4
2,4.4,B8
3,3.5,B9
4,9,B10
5,7.3,B11
